The values below come from ChEMBL document CHEMBL2040748, “N-4-t-Butylbenzyl 2-(4-methylsulfonylaminophenyl) propanamide TRPV1 antagonists: Structure-activity relationships in the A-region” (Bioorg Med Chem, 2012).

Sequences of proteins named here, by UniProt entry; tags and fusion partners are left off.
UniProt O35433, whole entry: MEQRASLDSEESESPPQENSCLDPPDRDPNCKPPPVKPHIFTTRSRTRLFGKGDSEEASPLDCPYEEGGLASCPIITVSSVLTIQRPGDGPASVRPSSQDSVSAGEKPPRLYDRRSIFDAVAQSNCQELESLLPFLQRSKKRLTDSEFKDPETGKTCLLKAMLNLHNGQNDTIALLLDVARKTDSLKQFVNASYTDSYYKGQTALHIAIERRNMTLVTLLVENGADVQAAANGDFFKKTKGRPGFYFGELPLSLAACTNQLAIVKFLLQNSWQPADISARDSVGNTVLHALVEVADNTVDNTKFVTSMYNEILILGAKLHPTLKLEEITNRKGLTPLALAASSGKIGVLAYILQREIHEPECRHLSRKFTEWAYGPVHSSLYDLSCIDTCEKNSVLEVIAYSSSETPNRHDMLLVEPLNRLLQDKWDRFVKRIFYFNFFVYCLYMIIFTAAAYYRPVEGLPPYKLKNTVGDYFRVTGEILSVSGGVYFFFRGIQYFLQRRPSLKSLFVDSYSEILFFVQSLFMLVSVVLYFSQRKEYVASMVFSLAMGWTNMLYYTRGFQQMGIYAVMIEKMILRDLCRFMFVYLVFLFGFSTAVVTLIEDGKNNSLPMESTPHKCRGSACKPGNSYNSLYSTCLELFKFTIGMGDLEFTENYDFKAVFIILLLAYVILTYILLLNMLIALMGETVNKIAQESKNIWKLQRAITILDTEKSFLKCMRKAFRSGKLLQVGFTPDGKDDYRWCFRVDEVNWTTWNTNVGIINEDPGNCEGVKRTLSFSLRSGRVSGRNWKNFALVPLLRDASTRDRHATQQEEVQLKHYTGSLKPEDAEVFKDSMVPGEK

For this assay, the target named is Transient receptor potential cation channel subfamily V member 1 (Rattus norvegicus) (UniProt O35433). Briefly: Antagonist activity at rat TRPV1 receptor expressed in CHO cells assessed as decrease in capsaicin-induced intracellular 45Ca2+ uptake after 1 hr by […] analysis relative to untreated control. In kind it is functional, cell-based.

As for `CC(C(=O)NCc1ccc(C(C)(C)C)cc1)c1ccc(NS(C)(=O)=O)c(N2CCCCC2)c1` (configuration not stated), the Efficacy is 37%.
As to `CC(C(=O)NCc1ccc(C(C)(C)C)cc1)c1ccc(NS(C)(=O)=O)c(N2CCOCC2)c1` (configuration not stated), the Efficacy came out at 34%.
